Laboratory results published in publication PMC10758494 (Frontiers in Pharmacology, 2023).

Amino acid sequences for entries named in this document (tags omitted). A change or cut given only in a name is not applied to a line headed by its entry. Residues count along the entry.
UniProt P02710: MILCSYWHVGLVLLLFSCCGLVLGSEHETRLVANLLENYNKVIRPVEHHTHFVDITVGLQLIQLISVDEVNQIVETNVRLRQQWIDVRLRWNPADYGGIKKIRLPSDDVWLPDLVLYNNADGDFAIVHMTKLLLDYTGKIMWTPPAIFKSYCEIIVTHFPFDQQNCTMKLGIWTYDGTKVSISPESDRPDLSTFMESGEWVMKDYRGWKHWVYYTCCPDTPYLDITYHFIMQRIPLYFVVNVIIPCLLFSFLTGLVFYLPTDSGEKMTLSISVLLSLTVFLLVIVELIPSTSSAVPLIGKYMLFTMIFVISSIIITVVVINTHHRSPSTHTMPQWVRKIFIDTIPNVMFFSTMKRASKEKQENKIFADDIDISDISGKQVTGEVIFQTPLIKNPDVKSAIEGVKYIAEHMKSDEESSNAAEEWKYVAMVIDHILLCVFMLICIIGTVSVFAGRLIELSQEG
UniProt P02714: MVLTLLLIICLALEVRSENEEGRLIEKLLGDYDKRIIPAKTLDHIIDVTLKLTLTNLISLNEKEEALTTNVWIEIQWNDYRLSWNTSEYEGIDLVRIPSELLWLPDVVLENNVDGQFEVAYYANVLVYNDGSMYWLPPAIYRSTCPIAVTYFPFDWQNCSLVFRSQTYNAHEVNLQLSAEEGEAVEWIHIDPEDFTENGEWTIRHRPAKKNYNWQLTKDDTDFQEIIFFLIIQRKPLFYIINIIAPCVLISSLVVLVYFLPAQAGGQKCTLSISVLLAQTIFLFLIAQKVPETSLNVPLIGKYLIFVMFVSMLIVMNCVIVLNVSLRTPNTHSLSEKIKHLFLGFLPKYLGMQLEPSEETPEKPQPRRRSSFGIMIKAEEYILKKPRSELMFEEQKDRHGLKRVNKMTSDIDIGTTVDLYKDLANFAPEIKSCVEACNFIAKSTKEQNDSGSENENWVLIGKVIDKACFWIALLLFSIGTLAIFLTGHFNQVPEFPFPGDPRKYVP
UniProt P02718: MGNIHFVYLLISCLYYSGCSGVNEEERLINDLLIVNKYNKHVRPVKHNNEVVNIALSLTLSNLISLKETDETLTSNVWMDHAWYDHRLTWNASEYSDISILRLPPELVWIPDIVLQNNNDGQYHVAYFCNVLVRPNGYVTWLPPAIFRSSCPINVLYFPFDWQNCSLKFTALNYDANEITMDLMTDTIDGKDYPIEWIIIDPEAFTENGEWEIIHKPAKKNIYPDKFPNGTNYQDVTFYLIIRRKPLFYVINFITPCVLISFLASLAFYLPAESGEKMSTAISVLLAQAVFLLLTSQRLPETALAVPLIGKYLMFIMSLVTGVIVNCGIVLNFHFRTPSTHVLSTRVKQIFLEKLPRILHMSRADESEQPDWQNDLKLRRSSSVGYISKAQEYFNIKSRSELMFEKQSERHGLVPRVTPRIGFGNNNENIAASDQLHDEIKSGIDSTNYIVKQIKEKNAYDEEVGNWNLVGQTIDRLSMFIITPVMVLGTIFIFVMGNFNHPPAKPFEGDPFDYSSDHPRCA
UniProt P36544, 23-502 limits assumed: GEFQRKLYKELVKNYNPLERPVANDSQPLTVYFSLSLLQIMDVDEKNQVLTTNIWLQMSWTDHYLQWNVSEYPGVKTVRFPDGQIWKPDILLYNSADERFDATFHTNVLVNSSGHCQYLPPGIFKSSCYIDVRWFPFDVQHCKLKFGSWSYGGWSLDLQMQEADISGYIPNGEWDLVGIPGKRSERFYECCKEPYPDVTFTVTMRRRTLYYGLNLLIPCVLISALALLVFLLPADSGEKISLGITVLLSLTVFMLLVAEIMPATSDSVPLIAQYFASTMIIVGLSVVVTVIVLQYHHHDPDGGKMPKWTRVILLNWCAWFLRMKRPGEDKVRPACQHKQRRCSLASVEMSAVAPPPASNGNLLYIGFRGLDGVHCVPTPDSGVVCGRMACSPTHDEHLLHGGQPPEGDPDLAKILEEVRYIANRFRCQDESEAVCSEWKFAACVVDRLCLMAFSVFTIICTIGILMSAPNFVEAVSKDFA

How the values were obtained:
[1] = biological target: muscle-type T. californica nAChR (Tetronarce californica, UniProt P02710+P02714+P02718); test: Competition radioligand assay with 125I-labeled α-bungarotoxin, T. californica membranes; conditions: for IC50: read-out: IC50 ± SEM, competition with 125I-αBgt for binding to T. californica nAChR, T. californica electric organ membranes; for Binding capacity to muscle-type nAChR (in words): competition with 125I-αBgt
[2] = biological target: human α7 nAChR expressed in GH4C1 cells (Homo sapiens, UniProt P36544); test: Competition radioligand assay with 125I-labeled α-bungarotoxin, GH4C1 cells; conditions: competition with 125I-αBgt

Structure (SMILES)	IC50 [1] [µM]	IC50 ([1]; listed as spermine) [µM]	Binding capacity to α7 nAChR (in words) [2]	Binding capacity to muscle-type nAChR (in words) [1]
NCCCNCCCCNCCCN [Spm, spermine]	28.6	30	–	–
NCCCCNCCCN	> 150	–	more than five-fold lower than that of Spm	more than five-fold lower than that of Spm
C[C@H](N)CCNCCCCNCC[C@H](C)N	31	–	–	–
C[C@@H](N)CCNCCCCNCC[C@@H](C)N	30.8	–	–	–
NCCCCN	–	–	almost inactive	almost inactive

Read-outs that look alike come from different tables or passages of the source.
